{"source": "patent US8119640B2", "about": "“Hedgehog pathway antagonists methods of use” (The Board of Trustees of the Leland Stanford Junior …, priority 2008, dated 2012)", "test_system": "Math1-cre:SmoM2 cerebellar GNPs", "experiment": "Math1-cre:SmoM2 cerebellar GNP proliferation", "assay_type": "cell-based, mice", "conditions": "HPIs 10 μM, cyclopamine 5 μM, 24 h", "procedure": "Analysis of Math1-cre:SmoM2 cerebellar GNP proliferation. To generate Math1-cre:SmoM2 tumors (11), a Math1-cre driver was used to conditionally express an activated Smo (SmoM2) allele. The Gt(ROSA)26Sortm1 (Smo/EYFP)Amc/J) mouse line was obtained from Jackson Laboratory (Bar Harbor, ME). […] Primary cultures from Math1-cre:SmoM2 tumors were established by triturating tumor tissue and plating the dissociated cells onto poly-D-ornithine-coated plates in DMEM-F-12 with N2 supplement, 25 mM KCI, and antibiotics. After culturing the cells for 24 h, they were treated with individual HPIs ([…]) for 24 h. Cell proliferation was then quantified by immunocytochemistry, and the expression of cyclin D1 and Gli1 were assessed by immunoblotting and RT-PCR, respectively. For immunocytochemistry, the primary cultures were fixed in 4% paraformaldehyde for 30 min at room temperature. […] Immunofluorescently stained cultures were imaged using a Nikon Eclipse E600 microscope equipped with a 20×objective. Approximately 30,000 cells were analyzed for each experimental condition. […] The resulting PCR products were analyzed on 2% agarose gels.", "note": "“Also recorded” adds a separate entry of the source."}
{"compound": "CC1=C2C[C@H]3[C@@H](CC=C4C[C@@H](O)CC[C@@]43C)[C@@H]2CC[C@]12O[C@@H]1C[C@H](C)CN[C@H]1[C@H]2C", "note": "[cyclopamine, reference compound]", "values": [{"measurement": "Proliferation of SmoM2-expressing GNPs (histone H3 phosphorylation)", "result": "cyclopamine-resistant; also recorded: ineffective against either oncogenic lesion"}]}
